Columns and labels:
[1] = molecular target: T1, C-X-C chemokine receptor type 4 (Homo sapiens, UniProt P61073); test: Displacement of biotinylated-TN14003 from CXCL12 binding site of CXCR4 in human MDA-MB-231 cells assessed as concentration required to inhibit >50% using rhodamine staining; format: cell-based
In short: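 MDA-MB-231 cells preincubated with compound at 1, 10, 100, 1000 nM, fixed in 4% formaldehyde, incubated with 50 nM biotinylated peptide antagonist then streptavidin-rhodamine; EC is lowest concentration blocking >50% of binding.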

Sequences of proteins named here, by UniProt entry; tags and fusion partners are left off.
UniProt P61073, whole entry: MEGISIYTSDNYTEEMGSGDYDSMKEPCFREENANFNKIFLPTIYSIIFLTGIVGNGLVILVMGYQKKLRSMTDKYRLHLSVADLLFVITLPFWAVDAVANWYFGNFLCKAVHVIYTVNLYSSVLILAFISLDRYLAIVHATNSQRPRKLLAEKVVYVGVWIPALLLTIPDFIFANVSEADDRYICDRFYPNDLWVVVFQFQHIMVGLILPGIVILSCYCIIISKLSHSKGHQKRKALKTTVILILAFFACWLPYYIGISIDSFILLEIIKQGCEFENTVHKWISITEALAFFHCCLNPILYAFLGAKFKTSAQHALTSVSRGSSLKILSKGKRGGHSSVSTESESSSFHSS

[2] = molecular target: T1, C-X-C chemokine receptor type 4; test: Antagonist activity at CXCR4 in human MDA-MB-231 cells assessed as inhibition of CXCL12-mediated cell invasion at 100 nM by […] cell invasion assay; format: functional, cell-based
[3] = molecular target: T1, C-X-C chemokine receptor type 4; test: Antagonist activity at CXCR4 in human MDA-MB-231 cells assessed as inhibition of CXCL12-mediated cell invasion at 10 nM by […] cell invasion assay; format: functional, cell-based

SMILES	EC [1]	inhibition [2]	inhibition [3]
c1ccc(NCc2ccc(CNc3ccccn3)cc2)nc1	10 nM	–	–
c1ccc(NCc2ccc(CNc3ncccn3)cc2)cc1	10 nM	100%	55%
Fc1ccc(NCc2ccc(CNc3ncccn3)cc2)nc1	1 nM	78%	90%
